From PMC7531517 (mAbs, 2020) come the findings set out here.

Residue numbers refer to the chain shown, from its start.

The assay has as its target vascular endothelial growth factor (Homo sapiens (assumed), UniProt P15692-4). The assay is described as follows: SPR. For orientation: Surface plasmon resonance follows binding to a sensor surface in real time, without labels.

B1: mAb2 (wild type therapeutic monoclonal antibody against VEGF) (antibody, V domains shown)
VH: EVQLVESGGGLVQPGGSLRLSCAASGFTISDYWIHWVRQAPGKGLEWVAGITPAGGYTYYADSVKGRFTISADTSKNTAYLQMNSLRAEDTAVYYCARFVFFLPYAMDYWGQGTLVTVSS
VL: DIQMTQSPSSLSASVGDRVTITCRASQDVSTAVAWYQQKPGKAPKLLIYSASFLYSGVPSRFSGSGSGTDFTLTISSLQPEDFATYYCQQSYTTPPTFGQGTKVEIK
As for B1, binding was put at a Kd of 1.11 nM; the koff (usually the first-order rate constant of dissociation) is 0.000405 s⁻¹; the kon – broadly, the second-order rate constant of association – worked out at 3.66e-05 M⁻¹ s⁻¹.

B2: in silico optimized variant of mAb2 (SL52R) (antibody, V domains shown)
VH: B1 VH
VL: B1 VL with S52R
B2: the affinity, expressed as Kd, was 1.24 nM; the koff was 0.000375 s⁻¹; the on-rate constant (kon) was 3.03e-05 M⁻¹ s⁻¹.
